The chains behind the UniProt entries cited, without tags or fusion partners. Residues count along the entry.
UniProt P35739, 33-799: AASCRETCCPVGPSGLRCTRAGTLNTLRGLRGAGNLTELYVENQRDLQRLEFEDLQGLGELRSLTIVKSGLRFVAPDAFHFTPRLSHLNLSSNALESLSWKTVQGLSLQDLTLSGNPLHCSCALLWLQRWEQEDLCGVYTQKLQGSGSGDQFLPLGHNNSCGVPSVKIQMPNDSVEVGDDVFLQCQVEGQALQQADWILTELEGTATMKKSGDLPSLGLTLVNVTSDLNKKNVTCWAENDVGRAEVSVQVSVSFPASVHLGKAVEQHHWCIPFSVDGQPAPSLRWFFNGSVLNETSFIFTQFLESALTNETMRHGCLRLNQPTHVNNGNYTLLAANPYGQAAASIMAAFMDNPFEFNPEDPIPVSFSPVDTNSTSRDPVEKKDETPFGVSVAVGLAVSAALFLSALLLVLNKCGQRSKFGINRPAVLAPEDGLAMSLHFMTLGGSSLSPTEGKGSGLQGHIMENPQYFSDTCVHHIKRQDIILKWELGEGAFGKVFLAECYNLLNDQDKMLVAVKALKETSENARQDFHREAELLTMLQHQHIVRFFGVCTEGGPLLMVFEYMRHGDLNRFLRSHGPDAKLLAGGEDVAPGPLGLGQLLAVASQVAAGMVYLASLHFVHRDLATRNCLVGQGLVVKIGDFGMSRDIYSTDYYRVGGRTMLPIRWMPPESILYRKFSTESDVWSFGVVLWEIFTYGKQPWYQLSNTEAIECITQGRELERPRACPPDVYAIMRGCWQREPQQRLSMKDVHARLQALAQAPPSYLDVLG

According to US5654427A, “Indolocarbazole derivatives to treat a pathological condition of the prostate” (Kyowa Hakko Kogyo Co., Ltd., priority 1995, dated 1997):

Target: T1, trkA (Rattus norvegicus, UniProt P35739)
T1 construct: are rat pheochromocytoma cells that bear trkA; host or cells: PC12 rat pheochromocytoma cells
Test: inhibition of NGF-stimulated trk autophosphorylation (tyrosine phosphorylation) in PC12 cells, anti-phosphotyrosine Western blot; also: key: +: Inhibited phosphorylation; -: Did not inhibit phosphorylation
Format: cell-based
Experimental: Candidate compounds for the inhibition of prostate cell proliferation were selected according to their ability to inhibit the tyrosine kinase activity associated with the trks.
PC12 cells (ATCC #CRL1721) are rat pheochromocytoma cells that bear trkA and differentiate into sympathetic neurons when treated with NGF. […] Cells were incubated at 37° C. in a humidified atmosphere of 10% CO2 and 90% air. […] The cells in each culture were disrupted and cell lysates were prepared by standard techniques known to those skilled in the art. Each lysate was incubated with anti-trk antibody whereby immune complexes were formed. […] The immune complexes were collected on Protein A-Sepharose beads, separated by SDS-polyacrylamide gel electrophoresis (SDS-PAGE), and transferred to polyvinylidene difluoride (PVDF) membranes (Millipore Corp., Bedford, Mass.), using techniques well known to those skilled in the art. The membranes were incubated with anti-phosphotyrosine antibody, which binds to the tyrosine phosphorylated trks, but not to the un-phosphorylated form of trks. Proteins bound to anti-phosphotyrosine antibody were visualized with enhanced chemiluminescence (ECL, Amersham), and are shown as dark "spots" in FIG. 1.
Measurement of the autophosphorylation of trk provides a good index of trk tyrosine kinase activity, and thereby of trk stimulation. […]

CC12OC(CC1(O)CO)n1c3ccccc3c3c4c(c5c6ccccc6n2c5c31)CNC4=O (stereo not shown) [Compound I-2]
trk 100 nM (inhibition of phosphorylation): +
